# Earlier results as cited in patent publication US9296750B2, “Spirolactam CGRP receptor antagonists” (Merck Sharp & Dohme Corp., priority 2012, dated 2016).
# By UniProt entry, the sequences of proteins in these tests, tags left out. Residues count along the entry.
# UniProt Q63118, 24-464: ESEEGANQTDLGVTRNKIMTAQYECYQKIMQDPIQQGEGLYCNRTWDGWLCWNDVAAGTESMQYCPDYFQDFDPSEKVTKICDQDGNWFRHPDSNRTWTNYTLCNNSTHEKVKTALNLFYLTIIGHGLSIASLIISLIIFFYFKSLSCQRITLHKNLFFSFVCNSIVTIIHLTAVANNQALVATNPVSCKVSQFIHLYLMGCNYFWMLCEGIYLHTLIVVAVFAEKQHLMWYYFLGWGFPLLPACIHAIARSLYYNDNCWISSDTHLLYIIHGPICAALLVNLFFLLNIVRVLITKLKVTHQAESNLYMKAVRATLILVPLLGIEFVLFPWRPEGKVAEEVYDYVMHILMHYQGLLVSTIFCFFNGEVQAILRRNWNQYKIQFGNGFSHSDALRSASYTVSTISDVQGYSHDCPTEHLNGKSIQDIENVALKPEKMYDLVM
# UniProt Q9JJ74, 27-148: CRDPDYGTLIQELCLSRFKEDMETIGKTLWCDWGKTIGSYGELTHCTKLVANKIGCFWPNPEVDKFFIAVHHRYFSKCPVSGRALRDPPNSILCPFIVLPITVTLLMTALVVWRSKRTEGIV
# Tests used:
# CGRP receptor [1] = biological target: T1, CGRP receptor (Rattus norvegicus, UniProt Q63118+Q9JJ74); conditions: rats, prior administration; cited from earlier work
# T1 construct: host or cells: rat (in vivo)
# CGRP receptor [2] = biological target: T1, CGRP receptor; conditions: cited from earlier work
substance,measurement,setting,value
CGRP(8-37),increase of middle meningeal artery diameter on electrical stimulation of the dura mater,CGRP receptor [1],blocked
same,increase of facial blood flow on trigeminal ganglion stimulation,CGRP receptor [2],inhibited
